The text below walks through data of US8563500B2, “Methods and compounds for treating diseases caused by reactive oxygen species” (Deutsches Krebsforschungszentrum Stiftung des Offentlichen …, priority 2007, dated 2013).

Common to all, as to assay type: cell-based, human
In test [1] the test system is Jurkat J16-145 cells. Nature of the test: Activation-induced (PMA or anti-CD3) ROS generation, DCFDA oxidation by FACS. The following applies: 30 min.
In test [2] the test system is Jurkat J16-145 cells. Kind of test: Cellular ATP determination. The following applies: high concentrations of inhibitors, 2 h.
For the next test, the system named is CD95L. Kind of test: Activation-induced CD95L expression, semi-quantitative RT-PCR and quantitative PCR, Jurkat cells. The following applies: Jurkat J16-145; plate-bound anti-CD3 (TCR triggering), 1 h.

Regarding antimycin A, in the test with Jurkat J16-145 cells [1], the “effect on activation-induced (TCR- and PMA-induced) ROS generation, in words” value is given as “no effect or increased the oxidative signal”. In the test with Jurkat J16-145 cells [2], the “ATP depletion compared to rotenone and piericidin A” value was “more efficient ATP depletion”. Besides, the “reduction of CD95L induction, quantitative PCR” value in the test on CD95L is “no effect”.
